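A five-concentration, 48-hour dose response in 96-well plates underlies each endpoint, interpolated linearly between surrounding concentrations. Here, GI50 denotes the concentration required for 50% inhibition of growth. TGI: concentration producing complete growth inhibition.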
Test system: MDA-MB-468 breast
Experiment: NCI-60 cell line screen, 48 h

In the case of Cc1c([N+](=O)[O-])c(C)c([N+](=O)[O-])c(Nc2c([N+](=O)[O-])c(C)c([N+](=O)[O-])c(C)c2[N+](=O)[O-])c1[N+](=O)[O-], the GI50 is reported as 0.331 µM and the TGI is reported as 1.9 µM.

From PubChem BioAssay (NCI)
